Laboratory results: US20250051340A1, “TRIAZOLONE DERIVATIVE SALT AS NEUTROPHIL ELASTASE INHIBITOR” (CHIESI FARMACEUTICI S.P.A., priority 2021, published 2025)

Assay: Head-out plethysmography (HOP) assay, lung function parameters
Conditions: male Wistar rats, snout-only inhalation, dry powder

Substance: (2-{5-Cyano-2-[(R)-6-methoxycarbonyl-7-methyl-3-oxo-8-(3-trifluoromethyl-phenyl)-2,3,5,8-tetrahydro-[1,2,4]triazolo[4,3-a]pyrimidin-5-yl]-phenyl}-ethyl)-trimethyl-ammonium propionate
- increase of respiratory rate, peak effect (0.6 mg/kg, vs vehicle (lactose)): 65%
- reduction of tidal volume, peak effect (6 mg/kg (high dose), vs vehicle (lactose)): 37%
- increase of PenH compared to vehicle (high dose 6 mg/kg): ~18 fold
- % of Reduction of tidal volume (low and high dose, peak effect vs vehicle (lactose)): 37-65%
- increase of PenH compared to vehicle (low dose 0.6 mg/kg): about 7 fold
